Binding of CDR-mutated scFvs to a peptide of the spike HR2 region

All variants were tested on one target, the spike HR2 peptide PDVDLGDISGINAS (SARS-CoV-2).

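Phage display of a naive human antibody library on the peptide gave the parent. AAYL49 was designed without a model: most single CDR substitutions and a random sample of double and triple ones. AlphaSeq pools MATa yeast showing the antibodies with MATalpha yeast showing the peptide. Mating (16 h, 30 °C) was followed by selection of diploids and sequencing of their barcodes. Each replicate has its own calibration line, from reference interactions of the BCL2 family. Each pool was mated in three replicate cultures.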

Parent scFv Ab-14: VH joined to VL by three GGGGS repeats. Changes lie in the heavy chain CDRs alone.
VH: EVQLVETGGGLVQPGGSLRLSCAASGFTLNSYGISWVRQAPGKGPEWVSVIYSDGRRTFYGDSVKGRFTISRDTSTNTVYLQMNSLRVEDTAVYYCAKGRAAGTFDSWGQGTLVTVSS
VL: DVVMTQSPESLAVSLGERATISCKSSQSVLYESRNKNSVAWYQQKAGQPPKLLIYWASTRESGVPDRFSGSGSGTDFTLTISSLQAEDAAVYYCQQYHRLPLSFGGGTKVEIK

Sequences are complete VH domains. Numbers give log10(Kd / nM), so 0 is 1 nM and 3 is 1 µM. Smaller is tighter. Replicates are averaged; those with no signal do not enter the mean. An entry "ND" has no value in the source: the pair was not observed among the diploids in that replicate. This suggests poor binding but is not conclusive. In this assay the parent's reference entry averaged 0.65; its copy inside this library read 4.11 (one replicate of three).

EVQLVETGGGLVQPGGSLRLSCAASGFTLNSYGISWVRQAPGKGPEWVSVIYSDGRRPFYGDSVKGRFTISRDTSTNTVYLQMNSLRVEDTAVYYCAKGRAASTFLSWGQGTLVTVSS: 4.00, ND, ND (controls 2 of 9).
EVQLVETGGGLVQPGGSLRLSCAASGFTLPSVGISWVRQAPGKGPEWVSVIYSDGRRTFYGDNVKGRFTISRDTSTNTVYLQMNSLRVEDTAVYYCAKGRAAGTFDSWGQGTLVTVSS: ND, ND, ND (controls 0 of 9).
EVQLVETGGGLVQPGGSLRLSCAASGFTLNSYGISWVRQAPGKGPEWVSVIYSDGRRTFYGDSVKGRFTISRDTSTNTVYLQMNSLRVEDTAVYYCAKIRYAGTFDSWGQGTLVTVSS: 3.38, 2.95, ND (mean 3.17; controls 0 of 9).
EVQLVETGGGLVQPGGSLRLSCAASGFTLNSYGISWVRQAPGKGPEWVSVIYSDGRRTFYGDSAKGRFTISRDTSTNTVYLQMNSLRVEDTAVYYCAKGRAAPTFDSWGQGTLVTVSS: 1.69, 1.97, 1.37 (mean 1.68; controls 1 of 9).
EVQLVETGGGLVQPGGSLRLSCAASGFTINSYGISWVRQAPGKGPEWVSVIYSDGRITFYGDSVKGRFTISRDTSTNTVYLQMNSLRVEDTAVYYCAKGEAAGTFDSWGQGTLVTVSS: ND, ND, ND (controls 0 of 9).
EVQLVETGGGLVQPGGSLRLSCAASQFTLNSYGISWVRQAPGKGPEWVSVIYSDGRQTFYGDSVKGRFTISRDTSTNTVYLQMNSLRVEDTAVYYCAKGRYAGTFDSWGQGTLVTVSS: ND, ND, ND (controls 0 of 9).
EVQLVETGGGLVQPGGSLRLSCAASGFTLNSYGIPWVRQAPGKGPEWVSVIYSDGRRTFYGDSVKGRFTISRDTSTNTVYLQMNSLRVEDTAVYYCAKGRDAGTIDSWGQGTLVTVSS: ND, ND, ND (controls 1 of 9).
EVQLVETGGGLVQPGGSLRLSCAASGDTLNSYGISWVRQAPGKGPEWVSVIYSDGRRTFYRDSVKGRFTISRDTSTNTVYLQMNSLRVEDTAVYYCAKGRAAGTDDSWGQGTLVTVSS: 2.39, 2.51, 2.17 (mean 2.36; controls 3 of 9).
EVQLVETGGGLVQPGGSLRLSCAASGFTLNSYGISWVRQAPGKGPEWVSVMYSDGGRTFYGDSVKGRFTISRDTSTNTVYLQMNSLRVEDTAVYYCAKGRNAGTFDSWGQGTLVTVSS: ND, ND, ND (controls 0 of 9).
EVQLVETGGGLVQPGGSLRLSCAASGFTLESYGISWVRQAPGKGPEWVSAIYSDGRRTFYGDSVKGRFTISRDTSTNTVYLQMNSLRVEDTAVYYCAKGRAAGTFDSWGQGTLVTVSS: 3.84, 3.37, 4.93 (mean 4.05; controls 2 of 9).
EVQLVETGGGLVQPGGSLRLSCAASGFCLNSYGISWVRQAPGKGPEWVSVIYSDGRRTFYGDSVKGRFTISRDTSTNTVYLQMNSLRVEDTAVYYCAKGRAMGNFDSWGQGTLVTVSS: ND, ND, ND (controls 2 of 9).
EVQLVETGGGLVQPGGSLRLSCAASGFTLNSYGISWVRQAPGKGPEWVSVIYSDRRRTFYSDSIKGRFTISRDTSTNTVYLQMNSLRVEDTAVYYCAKGRAAGTFDSWGQGTLVTVSS: ND, ND, ND (controls 0 of 9).
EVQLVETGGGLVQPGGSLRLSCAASGFHLNSYGISWVRQAPGKGPEWVSVIYSDGRRTFYGDHVKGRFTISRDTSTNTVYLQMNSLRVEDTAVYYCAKGRAGGTFDSWGQGTLVTVSS: 2.64, ND, 2.79 (mean 2.71; controls 0 of 9).
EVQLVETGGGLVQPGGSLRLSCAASGFTANSYGISWVRQAPGKGPEWVSVIYSDGRRTFYGDSVYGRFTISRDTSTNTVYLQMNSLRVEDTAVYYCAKGRAAGTFTSWGQGTLVTVSS: 3.52, ND, ND (controls 0 of 9).
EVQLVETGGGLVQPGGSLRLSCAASGFTLNSGGISWVRQAPGKGPEWVSVIYSDGRRTFEGDSVKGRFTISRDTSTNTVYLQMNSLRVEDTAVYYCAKGRAFGTFDSWGQGTLVTVSS: ND, ND, ND (controls 0 of 9).
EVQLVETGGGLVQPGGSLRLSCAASGFTLNSYGISWVRQAPGKGPEWVSVIYSDGRQTFAGDSVKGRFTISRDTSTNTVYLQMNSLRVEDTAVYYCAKGRAAQTFDSWGQGTLVTVSS: ND, ND, ND (controls 2 of 9).
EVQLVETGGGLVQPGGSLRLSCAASGFTLNSYGISWVRQAPGKGPEWVSVIYSDGRRTFYGDSVKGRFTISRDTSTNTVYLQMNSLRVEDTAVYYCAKGRAAGTFDKWGQGTLVTVSS: 1.32, 1.46, 1.59 (mean 1.45; controls 0 of 9).
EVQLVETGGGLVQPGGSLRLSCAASGFTCNSYGITWVRQAPGKGPEWVSVIYSDGRRTFYGDEVKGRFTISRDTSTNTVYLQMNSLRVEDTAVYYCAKGRAAGTFDSWGQGTLVTVSS: ND, ND, ND (controls 1 of 9).
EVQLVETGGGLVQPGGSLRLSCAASGTTLNSYGISWVRQAPGKGPEWVSVIYSDGRRPFYGDSVKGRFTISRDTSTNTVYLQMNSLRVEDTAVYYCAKKRAAGTFDSWGQGTLVTVSS: ND, ND, ND (controls 3 of 9).
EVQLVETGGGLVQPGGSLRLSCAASGFTLNGYGISWVRQAPGKGPEWVSVIYSDGRRTFYGDSVKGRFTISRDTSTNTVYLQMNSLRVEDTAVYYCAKGRAAGFWDSWGQGTLVTVSS: ND, ND, ND (controls 1 of 9).
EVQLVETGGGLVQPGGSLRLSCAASGNTLNSYGYSWVRQAPGKGPEWVSVIYSDGRRDFYGDSVKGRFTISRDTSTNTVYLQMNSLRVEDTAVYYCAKGRAAGTFDSWGQGTLVTVSS: ND, 3.49, ND (controls 4 of 9).
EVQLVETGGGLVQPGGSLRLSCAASIFTLNSYGISWVRQAPGKGPEWVSVIYSDGRRTFYGDSVKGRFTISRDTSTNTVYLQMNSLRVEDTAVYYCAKGRAAGRFFSWGQGTLVTVSS: ND, 3.29, 5.00 (mean 4.15; controls 3 of 9).
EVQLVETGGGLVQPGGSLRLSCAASGFTNNSYGISWVRQAPGKGPEWVSVIYHDGRRTFYGDSVKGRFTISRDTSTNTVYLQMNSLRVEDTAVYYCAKARAAGTFDSWGQGTLVTVSS: ND, ND, ND (controls 3 of 9).

Background: pairings of library AAYL49 with three empty control strains gave a value in 15% of cases (median 4.06, 5th percentile 2.83). Values in that range, when seen in few replicates, are hard to tell from nonspecific mating. Also given: how often the same scFv was detected with the empty control strains.

Reference: Engelhart et al. 2022, doi:10.1038/s41597-022-01779-4. File: FLAb, binding data.